≈ marks a conversion by molar mass, not a printed value.
Tests used:
B. subtilis DSM 10 = details: broth microdilution, cation-adjusted Mueller-Hinton Broth II, ~4 × 10⁵ CFU/mL, 37 °C, 24 h, visible growth; mean of three independent biological replicates, each in technical triplicate
[1] = Affinity chromatography on Sepharose-bound d-Ala-d-Ala; details: Sepharose 4 Fast Flow-d-Ala-d-Ala affinity column, fermentation broth, vancomycin as control

CN[C@@]1(C)C[C@H](O[C@@H]2[C@H](O)C[C@H](O[C@H]3[C@H](C)O[C@@H](O[C@H]4[C@H](O[C@H]5[C@H](C)O[C@@H](Oc6ccc(C[C@@H](O)C(=O)N[C@H]7CNC(=O)NC[C@@H](C(=O)N[C@H](Cc8ccccc8)C(=O)O)NC(=O)[C@H]([C@H](C)c8c[nH]c9ccc(Cl)cc89)NC7=O)cc6)C[C@]5(C)N)O[C@@H](C)[C@H](O)[C@H]4O)C[C@]3(C)NC)O[C@H]2C)O[C@@H](C)[C@@H]1OC [Saarvienin A, saarvienin A]
MIC, B. subtilis DSM 10 (B. subtilis DSM 10): 0.125 µg/mL (≈ 0.0828 µM) | binding to D‐alanyl‐D‐alanine peptide motif [1]: did not show affinity | binding to D‐alanyl‐D‐alanine peptide motif ([1]; listed as 1): does not bind
